This passage reports IC50 results from patent US6413935.

The target of this assay is mouse class II IA^s, purified from LS102.9 cells (mouse). Briefly: 125I-peptide inhibition, purified class II.

As for AKFVAAWTLKAAA (modifications not checked) [1024.03], the IC50 (as a rule, the midpoint of a concentration-inhibition curve) was 1.06 µM.
